# Experimental data published in US5593678A, “Protection of teleost fish” (University of Georgia Research Foundation, priority 1994, dated 1997).
# Entries after “also recorded” stand apart in the source; their conditions may differ.
# Assays:
# [1] = Solubility of vanadate in tank water; format: physicochemical
# rats = settings: oral, 15 μM in drinking water; cited from earlier work
substance,measurement,setting,value
sodium orthovanadate,solubility in tank water,[1],readily soluble in tank water
same,toxicity in rats,rats,did not appear to be toxic; also recorded: no evidence that vanadate produced any irreversible changes
